ChEMBL document CHEMBL1128349 (J Med Chem, 1995)

The chains behind the UniProt entries cited, without tags or fusion partners. Where a name states a change or a piece, a line headed by the entry shows the natural chain unless it says otherwise.
UniProt P22002: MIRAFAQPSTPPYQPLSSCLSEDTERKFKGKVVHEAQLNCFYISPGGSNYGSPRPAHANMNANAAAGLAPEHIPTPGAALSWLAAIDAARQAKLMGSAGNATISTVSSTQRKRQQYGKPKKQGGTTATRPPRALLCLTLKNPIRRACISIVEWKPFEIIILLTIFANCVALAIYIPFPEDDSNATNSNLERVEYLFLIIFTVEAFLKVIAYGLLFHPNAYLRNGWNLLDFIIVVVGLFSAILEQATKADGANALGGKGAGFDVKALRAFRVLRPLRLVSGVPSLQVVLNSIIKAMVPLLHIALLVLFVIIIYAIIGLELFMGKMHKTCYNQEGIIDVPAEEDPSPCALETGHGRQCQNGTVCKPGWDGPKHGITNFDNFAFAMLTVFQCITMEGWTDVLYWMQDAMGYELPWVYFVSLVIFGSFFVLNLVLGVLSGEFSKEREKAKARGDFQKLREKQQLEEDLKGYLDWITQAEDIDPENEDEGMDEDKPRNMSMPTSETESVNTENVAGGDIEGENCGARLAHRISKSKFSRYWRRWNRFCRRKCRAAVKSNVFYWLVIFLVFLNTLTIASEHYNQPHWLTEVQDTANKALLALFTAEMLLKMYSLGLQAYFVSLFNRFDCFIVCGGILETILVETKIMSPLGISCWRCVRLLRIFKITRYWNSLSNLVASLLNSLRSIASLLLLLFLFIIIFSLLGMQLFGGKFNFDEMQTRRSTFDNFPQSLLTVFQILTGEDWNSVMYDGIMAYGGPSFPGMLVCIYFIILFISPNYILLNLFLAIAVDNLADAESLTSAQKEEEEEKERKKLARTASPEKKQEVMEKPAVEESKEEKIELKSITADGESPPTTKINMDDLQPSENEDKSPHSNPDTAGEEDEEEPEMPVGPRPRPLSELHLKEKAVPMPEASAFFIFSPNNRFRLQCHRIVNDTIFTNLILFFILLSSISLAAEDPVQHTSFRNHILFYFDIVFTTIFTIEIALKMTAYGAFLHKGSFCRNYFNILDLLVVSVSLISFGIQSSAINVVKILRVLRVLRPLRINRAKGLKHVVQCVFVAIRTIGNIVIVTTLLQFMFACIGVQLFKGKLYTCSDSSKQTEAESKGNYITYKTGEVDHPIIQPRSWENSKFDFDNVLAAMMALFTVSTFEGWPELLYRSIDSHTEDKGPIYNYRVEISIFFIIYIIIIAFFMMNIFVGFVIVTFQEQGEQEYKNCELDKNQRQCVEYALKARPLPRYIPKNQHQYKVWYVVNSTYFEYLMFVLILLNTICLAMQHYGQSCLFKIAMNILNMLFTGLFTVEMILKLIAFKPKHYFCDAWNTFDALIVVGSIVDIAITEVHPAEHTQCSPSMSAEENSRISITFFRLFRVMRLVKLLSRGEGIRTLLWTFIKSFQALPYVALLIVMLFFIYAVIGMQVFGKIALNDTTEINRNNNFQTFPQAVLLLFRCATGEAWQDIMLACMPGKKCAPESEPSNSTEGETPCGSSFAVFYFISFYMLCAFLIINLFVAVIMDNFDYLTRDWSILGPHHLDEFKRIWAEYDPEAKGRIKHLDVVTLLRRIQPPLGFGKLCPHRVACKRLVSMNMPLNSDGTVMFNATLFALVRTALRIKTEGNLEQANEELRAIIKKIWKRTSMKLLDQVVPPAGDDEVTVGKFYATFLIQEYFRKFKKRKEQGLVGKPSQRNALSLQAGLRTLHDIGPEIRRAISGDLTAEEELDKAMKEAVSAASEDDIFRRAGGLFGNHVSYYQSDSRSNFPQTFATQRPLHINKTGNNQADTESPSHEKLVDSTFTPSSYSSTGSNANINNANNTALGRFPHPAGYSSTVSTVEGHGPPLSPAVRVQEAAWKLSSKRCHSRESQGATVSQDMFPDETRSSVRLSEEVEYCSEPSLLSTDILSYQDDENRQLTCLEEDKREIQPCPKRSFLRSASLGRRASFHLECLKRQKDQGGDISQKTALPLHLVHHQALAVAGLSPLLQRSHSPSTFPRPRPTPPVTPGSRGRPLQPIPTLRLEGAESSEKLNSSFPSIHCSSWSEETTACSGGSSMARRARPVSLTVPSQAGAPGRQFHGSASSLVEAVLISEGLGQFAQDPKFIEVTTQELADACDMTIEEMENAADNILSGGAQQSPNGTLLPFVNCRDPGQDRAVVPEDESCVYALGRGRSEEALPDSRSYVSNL
UniProt Q02485: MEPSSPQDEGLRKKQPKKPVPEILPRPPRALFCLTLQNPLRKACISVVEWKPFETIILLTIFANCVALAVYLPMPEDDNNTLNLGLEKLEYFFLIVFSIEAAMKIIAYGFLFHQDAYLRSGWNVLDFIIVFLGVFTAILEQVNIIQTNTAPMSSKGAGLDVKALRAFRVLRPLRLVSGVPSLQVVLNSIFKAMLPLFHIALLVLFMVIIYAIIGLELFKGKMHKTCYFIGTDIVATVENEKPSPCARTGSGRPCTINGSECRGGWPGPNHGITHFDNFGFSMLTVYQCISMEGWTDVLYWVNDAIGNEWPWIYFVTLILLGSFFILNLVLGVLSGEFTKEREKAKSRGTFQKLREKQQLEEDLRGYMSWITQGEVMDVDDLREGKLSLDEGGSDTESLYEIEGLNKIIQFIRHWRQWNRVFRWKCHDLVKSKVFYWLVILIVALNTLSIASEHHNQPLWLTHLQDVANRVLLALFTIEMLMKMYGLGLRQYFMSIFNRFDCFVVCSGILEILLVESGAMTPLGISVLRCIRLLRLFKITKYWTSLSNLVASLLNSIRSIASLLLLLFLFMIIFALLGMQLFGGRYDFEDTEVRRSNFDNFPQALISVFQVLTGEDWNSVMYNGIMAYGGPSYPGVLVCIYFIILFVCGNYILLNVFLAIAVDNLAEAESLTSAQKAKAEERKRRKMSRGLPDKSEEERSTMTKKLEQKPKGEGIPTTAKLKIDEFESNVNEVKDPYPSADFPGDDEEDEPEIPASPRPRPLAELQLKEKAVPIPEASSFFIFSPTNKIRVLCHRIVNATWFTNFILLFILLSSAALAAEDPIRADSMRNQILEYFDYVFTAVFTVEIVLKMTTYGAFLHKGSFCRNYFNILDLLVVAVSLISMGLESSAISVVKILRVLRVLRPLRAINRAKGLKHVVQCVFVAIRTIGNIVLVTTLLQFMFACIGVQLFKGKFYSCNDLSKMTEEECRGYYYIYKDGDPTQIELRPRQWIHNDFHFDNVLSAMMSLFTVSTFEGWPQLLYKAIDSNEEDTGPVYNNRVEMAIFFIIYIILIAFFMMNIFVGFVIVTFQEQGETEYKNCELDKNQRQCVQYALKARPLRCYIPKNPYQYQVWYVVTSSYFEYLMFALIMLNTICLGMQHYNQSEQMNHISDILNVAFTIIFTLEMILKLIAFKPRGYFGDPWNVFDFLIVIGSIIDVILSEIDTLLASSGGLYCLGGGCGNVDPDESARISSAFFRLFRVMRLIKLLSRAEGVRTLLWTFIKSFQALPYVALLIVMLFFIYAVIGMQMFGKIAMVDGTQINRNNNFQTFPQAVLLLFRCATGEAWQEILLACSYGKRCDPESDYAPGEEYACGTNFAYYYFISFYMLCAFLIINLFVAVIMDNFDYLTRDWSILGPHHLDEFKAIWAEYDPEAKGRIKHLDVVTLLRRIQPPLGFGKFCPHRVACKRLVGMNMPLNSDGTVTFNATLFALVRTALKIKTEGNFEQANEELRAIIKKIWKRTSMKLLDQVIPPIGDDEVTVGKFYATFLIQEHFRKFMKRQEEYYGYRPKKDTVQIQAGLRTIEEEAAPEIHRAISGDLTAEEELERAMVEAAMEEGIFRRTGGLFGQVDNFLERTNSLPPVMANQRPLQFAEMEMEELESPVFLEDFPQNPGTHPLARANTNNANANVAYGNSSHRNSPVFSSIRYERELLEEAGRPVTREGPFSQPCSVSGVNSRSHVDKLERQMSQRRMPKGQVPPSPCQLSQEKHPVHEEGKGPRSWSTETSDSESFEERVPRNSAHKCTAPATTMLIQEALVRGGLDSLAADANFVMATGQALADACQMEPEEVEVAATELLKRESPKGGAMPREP
UniProt P27732: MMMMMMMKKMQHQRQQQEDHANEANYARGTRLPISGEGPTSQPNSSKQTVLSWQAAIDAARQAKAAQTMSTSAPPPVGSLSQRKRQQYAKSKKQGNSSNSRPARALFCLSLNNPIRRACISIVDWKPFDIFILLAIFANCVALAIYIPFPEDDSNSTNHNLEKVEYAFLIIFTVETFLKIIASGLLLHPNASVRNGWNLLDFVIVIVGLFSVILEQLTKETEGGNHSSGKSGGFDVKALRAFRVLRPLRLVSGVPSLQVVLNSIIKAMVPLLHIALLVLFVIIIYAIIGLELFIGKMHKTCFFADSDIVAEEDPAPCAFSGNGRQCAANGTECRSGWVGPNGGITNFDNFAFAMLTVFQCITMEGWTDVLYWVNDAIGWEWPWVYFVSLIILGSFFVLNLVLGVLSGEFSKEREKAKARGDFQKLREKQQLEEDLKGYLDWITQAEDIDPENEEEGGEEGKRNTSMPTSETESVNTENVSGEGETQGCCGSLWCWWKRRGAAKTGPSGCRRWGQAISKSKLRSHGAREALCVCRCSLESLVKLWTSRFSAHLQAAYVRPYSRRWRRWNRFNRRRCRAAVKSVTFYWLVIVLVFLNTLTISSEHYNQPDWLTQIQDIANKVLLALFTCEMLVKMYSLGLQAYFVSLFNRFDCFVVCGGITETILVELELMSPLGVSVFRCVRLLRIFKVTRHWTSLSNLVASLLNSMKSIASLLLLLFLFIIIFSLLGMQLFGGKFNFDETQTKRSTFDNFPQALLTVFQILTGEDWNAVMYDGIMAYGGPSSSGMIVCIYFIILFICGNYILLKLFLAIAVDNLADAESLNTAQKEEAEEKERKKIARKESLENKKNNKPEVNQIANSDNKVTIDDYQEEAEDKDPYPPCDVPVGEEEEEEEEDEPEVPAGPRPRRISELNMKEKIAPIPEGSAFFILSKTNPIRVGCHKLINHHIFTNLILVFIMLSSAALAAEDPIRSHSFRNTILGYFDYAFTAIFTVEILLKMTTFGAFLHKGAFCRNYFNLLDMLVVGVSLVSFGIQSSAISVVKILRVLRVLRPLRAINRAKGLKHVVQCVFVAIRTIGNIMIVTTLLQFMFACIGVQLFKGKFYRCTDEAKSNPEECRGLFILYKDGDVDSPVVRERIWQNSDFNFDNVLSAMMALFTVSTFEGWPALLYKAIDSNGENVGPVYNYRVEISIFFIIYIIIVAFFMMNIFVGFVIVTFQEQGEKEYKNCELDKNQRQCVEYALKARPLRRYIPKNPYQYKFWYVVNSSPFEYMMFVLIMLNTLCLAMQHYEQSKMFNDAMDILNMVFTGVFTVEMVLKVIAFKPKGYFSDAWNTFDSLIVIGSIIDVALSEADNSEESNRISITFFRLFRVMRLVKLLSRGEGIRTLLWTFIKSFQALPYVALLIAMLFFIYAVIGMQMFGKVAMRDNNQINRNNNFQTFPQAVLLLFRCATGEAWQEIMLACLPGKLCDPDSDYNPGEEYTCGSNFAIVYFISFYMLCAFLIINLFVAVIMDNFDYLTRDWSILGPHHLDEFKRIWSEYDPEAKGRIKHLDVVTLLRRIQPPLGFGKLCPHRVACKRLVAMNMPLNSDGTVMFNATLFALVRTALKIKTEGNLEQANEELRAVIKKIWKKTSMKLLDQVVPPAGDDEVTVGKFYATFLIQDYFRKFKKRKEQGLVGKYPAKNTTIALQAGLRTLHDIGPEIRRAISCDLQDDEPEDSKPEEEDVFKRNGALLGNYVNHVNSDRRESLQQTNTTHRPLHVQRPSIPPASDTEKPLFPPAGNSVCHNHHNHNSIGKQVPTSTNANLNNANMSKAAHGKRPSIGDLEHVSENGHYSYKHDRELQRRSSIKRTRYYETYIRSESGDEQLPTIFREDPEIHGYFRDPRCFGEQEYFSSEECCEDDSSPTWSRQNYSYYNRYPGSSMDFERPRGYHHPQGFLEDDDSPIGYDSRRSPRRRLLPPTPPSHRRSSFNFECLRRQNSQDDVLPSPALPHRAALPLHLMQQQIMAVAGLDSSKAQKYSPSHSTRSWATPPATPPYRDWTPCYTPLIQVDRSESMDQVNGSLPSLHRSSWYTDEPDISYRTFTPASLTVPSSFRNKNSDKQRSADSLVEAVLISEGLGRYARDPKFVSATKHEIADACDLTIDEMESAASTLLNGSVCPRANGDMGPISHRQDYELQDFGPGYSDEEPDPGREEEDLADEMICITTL

Target: Voltage-gated L-type calcium channel (Rattus norvegicus, UniProt P22002+Q02485+P27732)
Experiment: Displacement of [3H]nitrendipine from rat brain L-type [Ca2+] channel
Type: tissue-based

SMILES | Ki [nM]
COC(=O)C1=C(C)NC(C)=C(C(=O)OCCCN2CCC(c3ccccc3)(c3ccccc3)CC2)[C@@H]1c1cccc([N+](=O)[O-])c1 [DEXNIGULDIPINE] | 92
COC(=O)C1=C(C)NC(C)=C(C(=O)OCCCN2CCC(c3ccccc3)(c3ccccc3)CC2)[C@H]1c1cccc([N+](=O)[O-])c1 [NIGULDIPINE] | 4.6
